{
  "sequences": {"note": "Amino acid sequences for entries named in this document (tags omitted). A change or cut given only in a name is not applied to a line headed by its entry.", "UniProt Q00960, whole entry": "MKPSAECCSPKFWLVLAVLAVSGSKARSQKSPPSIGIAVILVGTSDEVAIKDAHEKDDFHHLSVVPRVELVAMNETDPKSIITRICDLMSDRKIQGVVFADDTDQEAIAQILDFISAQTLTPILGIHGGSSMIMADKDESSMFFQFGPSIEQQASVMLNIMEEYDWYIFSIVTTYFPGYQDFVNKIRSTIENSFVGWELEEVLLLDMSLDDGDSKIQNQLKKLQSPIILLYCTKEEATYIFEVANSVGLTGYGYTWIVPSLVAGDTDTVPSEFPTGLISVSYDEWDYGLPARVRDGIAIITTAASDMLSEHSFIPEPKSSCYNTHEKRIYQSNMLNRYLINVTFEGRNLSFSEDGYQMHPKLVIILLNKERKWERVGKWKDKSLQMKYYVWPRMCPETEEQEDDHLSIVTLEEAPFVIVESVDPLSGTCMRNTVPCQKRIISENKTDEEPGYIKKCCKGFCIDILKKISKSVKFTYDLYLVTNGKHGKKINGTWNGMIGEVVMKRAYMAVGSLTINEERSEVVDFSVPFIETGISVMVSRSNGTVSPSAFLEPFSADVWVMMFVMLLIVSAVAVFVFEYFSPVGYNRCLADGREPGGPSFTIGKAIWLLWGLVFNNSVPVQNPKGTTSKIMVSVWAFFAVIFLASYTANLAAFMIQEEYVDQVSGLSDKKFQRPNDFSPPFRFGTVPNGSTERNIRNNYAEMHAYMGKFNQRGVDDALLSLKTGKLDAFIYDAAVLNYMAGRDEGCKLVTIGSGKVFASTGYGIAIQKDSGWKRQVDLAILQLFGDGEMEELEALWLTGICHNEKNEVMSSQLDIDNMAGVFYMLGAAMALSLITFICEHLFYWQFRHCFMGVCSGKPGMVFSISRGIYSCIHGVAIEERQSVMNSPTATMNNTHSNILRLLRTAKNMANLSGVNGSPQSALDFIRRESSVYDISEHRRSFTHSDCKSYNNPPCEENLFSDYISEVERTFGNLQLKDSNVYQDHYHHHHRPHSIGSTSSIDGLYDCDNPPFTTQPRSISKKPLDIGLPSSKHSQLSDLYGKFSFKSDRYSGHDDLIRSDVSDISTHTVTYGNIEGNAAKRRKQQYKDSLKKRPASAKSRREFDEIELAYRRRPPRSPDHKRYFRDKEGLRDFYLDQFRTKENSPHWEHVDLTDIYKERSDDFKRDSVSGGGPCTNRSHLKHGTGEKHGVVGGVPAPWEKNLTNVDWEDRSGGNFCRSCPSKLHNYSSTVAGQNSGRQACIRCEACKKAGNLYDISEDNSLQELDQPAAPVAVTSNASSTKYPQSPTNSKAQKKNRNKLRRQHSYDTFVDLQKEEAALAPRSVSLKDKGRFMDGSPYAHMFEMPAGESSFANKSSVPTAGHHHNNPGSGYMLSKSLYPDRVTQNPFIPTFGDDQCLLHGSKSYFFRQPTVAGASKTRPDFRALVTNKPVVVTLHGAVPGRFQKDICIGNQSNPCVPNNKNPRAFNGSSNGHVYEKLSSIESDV", "UniProt Q12809": "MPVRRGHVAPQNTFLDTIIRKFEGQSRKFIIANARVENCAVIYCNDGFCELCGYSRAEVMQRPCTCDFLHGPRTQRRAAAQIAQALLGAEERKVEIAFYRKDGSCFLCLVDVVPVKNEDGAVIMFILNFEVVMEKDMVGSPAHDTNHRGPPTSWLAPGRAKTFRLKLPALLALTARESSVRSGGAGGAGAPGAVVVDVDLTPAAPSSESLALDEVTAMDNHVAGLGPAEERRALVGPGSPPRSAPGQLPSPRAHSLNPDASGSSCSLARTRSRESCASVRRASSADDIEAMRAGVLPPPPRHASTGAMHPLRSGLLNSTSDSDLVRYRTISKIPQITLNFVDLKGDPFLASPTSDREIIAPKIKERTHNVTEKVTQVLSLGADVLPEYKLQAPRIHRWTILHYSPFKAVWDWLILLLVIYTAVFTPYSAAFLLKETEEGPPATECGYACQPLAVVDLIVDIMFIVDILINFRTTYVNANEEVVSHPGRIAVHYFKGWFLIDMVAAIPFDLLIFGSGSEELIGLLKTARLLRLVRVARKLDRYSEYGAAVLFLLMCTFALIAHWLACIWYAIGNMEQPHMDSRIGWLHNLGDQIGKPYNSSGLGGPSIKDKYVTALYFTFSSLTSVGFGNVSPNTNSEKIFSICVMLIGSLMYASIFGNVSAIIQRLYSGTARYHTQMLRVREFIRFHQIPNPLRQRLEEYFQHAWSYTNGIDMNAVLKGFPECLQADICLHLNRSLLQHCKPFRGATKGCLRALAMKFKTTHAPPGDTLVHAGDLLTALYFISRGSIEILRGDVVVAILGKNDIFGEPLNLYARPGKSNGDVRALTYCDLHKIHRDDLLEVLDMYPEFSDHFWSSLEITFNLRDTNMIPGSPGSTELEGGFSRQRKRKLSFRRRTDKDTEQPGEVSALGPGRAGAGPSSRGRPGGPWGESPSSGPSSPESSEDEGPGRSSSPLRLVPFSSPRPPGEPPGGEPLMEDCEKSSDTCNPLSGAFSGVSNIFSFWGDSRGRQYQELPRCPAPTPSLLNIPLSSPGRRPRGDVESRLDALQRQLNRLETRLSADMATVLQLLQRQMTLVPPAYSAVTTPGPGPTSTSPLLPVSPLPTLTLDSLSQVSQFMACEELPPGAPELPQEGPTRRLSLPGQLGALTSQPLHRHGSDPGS"},
  "source": "ChEMBL document CHEMBL3864170",
  "about": "“Pyrazole Inhibitors of GluN2B NMDA Receptor Subunit” (ACS Med Chem Lett, 2016)",
  "key": {"[1]": {"target": "Glutamate receptor ionotropic, NMDA 2B (Rattus norvegicus, UniProt Q00960)", "experiment": "Antagonist activity at Wistar rat brain NR2B assessed as inhibition of glutamate/glycine-induced Ca2+ flux measured after 90 secs"}, "hERG (KCNH2)": {"target": "hERG (KCNH2) (Homo sapiens, UniProt Q12809)", "experiment": "Displacement of [3H]-dofetilide from human ERG expressed in HEK293 cell membranes after 90 mins by scintillation counting", "conditions": "membranes of HEK293 cells that express human ERG, probe [3H]-dofetilide"}},
  "note": "pIC50: −log10 of the molar value.",
  "data": [
    {"compound": "FC(F)Oc1cc(-c2cnn(Cc3cc[nH]n3)c2)ccc1Cl", "values": [
      {"measurement": "pIC50", "setting": "[1]", "value": 8.28},
      {"measurement": "IC50 at 90 min", "setting": "hERG (KCNH2)", "value": 9.56, "unit": "µM"}
    ]}
  ]
}
